One experiment concerns the target IRE1 (Homo sapiens, UniProt O75460). Description: Luciferase assay in cells. The following applies: read-out: IC50 (Luciferase); Table 5. As for the experimental part: Luciferase assays—Cells were seeded in 96-well plate. Cells were treated with increasing concentration of Z4 and analogues. Medium was discarded and the plate was tapped to remove residual medium. 100 μL of lysis buffer (25 mM Tricine pH 7.8; 15 mM Potassium Phosphate pH 7.8; 15 mM MgSO4; 4 mM EGTA; 1% Triton X-100; 1 mM DTT) were added per well and incubated for 20 minutes at RT. 50 μL were transferred to a white 96-well plate and 50 μL of substrate buffer (25 mM Tricine pH 7.8; 15 mM Potassium Phosphate pH 7.8; 15 mM MgSO4; 4 mM EGTA; 1% Triton X-100; 1 mM DTT; 1 mM ATP; 0.2 mM luciferin) were added in each well and the luminescence was read.
IRE1—Mediated In Vitro RNase Assay and Luciferase Assay

Chains of the proteins cited; added tags and fusions are not shown. Residues count along the entry.
UniProt O75460, 19-977 limits assumed: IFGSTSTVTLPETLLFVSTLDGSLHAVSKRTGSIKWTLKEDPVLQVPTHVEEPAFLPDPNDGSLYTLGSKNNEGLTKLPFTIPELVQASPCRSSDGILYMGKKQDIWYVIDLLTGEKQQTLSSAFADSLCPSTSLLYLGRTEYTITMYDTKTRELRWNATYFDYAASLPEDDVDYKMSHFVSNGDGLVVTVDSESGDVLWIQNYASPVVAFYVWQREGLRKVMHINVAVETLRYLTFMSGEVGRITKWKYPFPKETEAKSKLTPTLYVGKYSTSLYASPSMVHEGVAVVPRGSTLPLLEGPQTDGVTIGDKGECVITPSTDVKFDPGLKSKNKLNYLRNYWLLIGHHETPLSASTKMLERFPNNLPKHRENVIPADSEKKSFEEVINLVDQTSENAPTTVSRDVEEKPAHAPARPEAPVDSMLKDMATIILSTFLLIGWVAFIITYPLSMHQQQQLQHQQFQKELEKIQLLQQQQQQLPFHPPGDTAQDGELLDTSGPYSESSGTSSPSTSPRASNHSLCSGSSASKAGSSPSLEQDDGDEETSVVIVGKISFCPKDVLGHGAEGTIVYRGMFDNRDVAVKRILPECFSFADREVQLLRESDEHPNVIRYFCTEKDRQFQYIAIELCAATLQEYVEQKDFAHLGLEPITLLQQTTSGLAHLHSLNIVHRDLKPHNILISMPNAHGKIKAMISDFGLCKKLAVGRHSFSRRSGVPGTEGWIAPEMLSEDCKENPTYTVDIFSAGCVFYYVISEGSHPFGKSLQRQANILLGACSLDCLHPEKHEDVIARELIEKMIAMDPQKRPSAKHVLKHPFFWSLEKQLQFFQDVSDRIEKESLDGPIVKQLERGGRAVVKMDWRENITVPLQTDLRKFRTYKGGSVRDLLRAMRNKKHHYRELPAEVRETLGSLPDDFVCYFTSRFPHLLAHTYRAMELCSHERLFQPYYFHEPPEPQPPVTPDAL

A further experiment has as its system RADH87 cells. Description: Proteome analysis of treated RADH87 cells. As for the experimental part: Proteomic analyses—Untreated and MKC8866 and compound 33 (Z4)-treated (during 48 hours) parental U251 and RADH87 GB cells as well as DN IRE1 U251 and RADH87 cells were lysed with lysis buffer composed of 20 mM Tris pH 8, 1.5 mM EDTA, 150 mM NaCl, 1% Triton X-100, 0.1% SDS, supplemented with proteases and phosphatases inhibitor cocktails (Roche). Total proteins were precipitated with 80% ice-cold acetone. Washed pellet were then denatured with 8 M urea in Tris-HCl 0.1 mM, reduced with 5 mM TCEP for 30 minutes, and then alkylated with 10 mM iodoacetamide for 30 minutes in the dark. […] Samples were analyzed using an Ultimate 3000 nano-RSLC (Thermo Scientific, San Jose California) coupled in line with a LTQ-Orbitrap ELITE mass spectrometer via a nano-electrospray ionization source (Thermo Scientific, San Jose California). Proteins were identified and quantified by database searching using SequestHT (Thermo Fisher Scientific) with Proteome Discoverer 2.4 software (PD2.4, Thermo Fisher Scientific) against Homo sapiens reviewed SwissProt database. Peptides and proteins were filtered with a false discovery rate (FDR) at 1% and their quantification was based on XIC (Extracted Ion Chromatogram). […]

Usually IC50 stands for the concentration at which inhibition is half-maximal.

Consider `Cc1ccc(C)c(NC(=O)NC(C)CCc2ccc(O)cc2)c1` (racemic), for which, on IRE1, the IC50 is 1620 nM.
For the compound `Cc1ccc(C(N)=O)cc1NC(=O)NC(C)CCc1ccc(O)cc1` (racemic), the “pathways impacted in proteome” value with RADH87 cells (48 hours) was “impacted on particular pathways such as cell adhesion, circulatory system development, cell locomotion and cell migration”. The “proteome alterations versus cells with genetically blunted IRE1 activity” value with RADH87 cells (comparison with DN and Q780stop) is reported as “phenocopied those observed in cells in which IRE1 activity was genetically blunted”.

For the origin of these results see patent publication US20260382588A1, “COMPOUNDS CONTAINING A HYDROXYPHENYL MOIETY AND THEIR USE” (published 2026).
